Patent US6582952B1 (priority 1997, dated 2003)

System: Bacillus licheniformis
Conditions: 1 l of 15 g/l ONTA, 90 g biomass, 15 g/l sugar, pH about 6, 25° C., 24 hours

Structure (SMILES): O=c1[nH]nc([N+](=O)[O-])[nH]1
- conversion of ONTA into the corresponding amine: greater than 80%

Only a part of the results on these compounds is given; other tests are left out.
